The target in the test is T1, dihydrofolate reductase (DHFR) (Homo sapiens, UniProt P00374).
T1 sequence (P00374 1-187): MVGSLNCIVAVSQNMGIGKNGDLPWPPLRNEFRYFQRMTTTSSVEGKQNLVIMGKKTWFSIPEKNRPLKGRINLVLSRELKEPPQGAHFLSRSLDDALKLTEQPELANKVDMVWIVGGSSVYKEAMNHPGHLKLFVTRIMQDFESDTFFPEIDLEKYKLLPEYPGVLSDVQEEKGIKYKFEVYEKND
Description: biochemical.

The Ki is a measure of affinity in units of concentration, obtained from inhibition or displacement. Low readings indicate tighter binding, high ones weaker binding.

In the case of `Nc1nc2[nH]cc(CCc3ccc(C(=O)N[C@@H](CCC(=O)O)C(=O)O)cc3)c2c(=O)[nH]1` [pemetrexed], the Ki is > 0.2 µM.

The values above are taken from article PMC2728224 (Cancer Chemotherapy and Pharmacology, 2009).
